## Permeability data for macrocyclic peptides

Values of Furukawa et al. 2016, doi:10.1021/acs.jmedchem.6b01246, as listed in CycPeptMPDB.

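Lipid, pH, incubation time, direction and concentration are not recorded in the data file. The list need not hold all peptides of the study. Entries at the database's floor value (log10 P of -10) are not listed.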

PAMPA is the parallel artificial membrane permeability assay, which has no cells and reads passive diffusion. Values are log10 P with P in cm/s, so -5 is more permeable than -7.

- CCCC[C@@H]1NC(=O)[C@H](CC(C)C)N(C)C(=O)CN(CC2CCCCC2)C(=O)[C@H](C)NC(=O)CN(Cc2ccc3c(c2)OCO3)C(=O)[C@H]2CCCN2C1=O: PAMPA -5.12 (log10 cm/s)
- CCCC[C@@H]1NC(=O)[C@H](CC(C)C)NC(=O)CN(CC2CCOCC2)C(=O)[C@H](Cc2ccccc2)NC(=O)CN(CC)C(=O)[C@H]2CCCN2C1=O: PAMPA -5.95 (log10 cm/s)
- CCCC[C@@H]1NC(=O)[C@H](CC(C)C)NC(=O)CN(CC2CCOCC2)C(=O)[C@@H](Cc2ccccc2)NC(=O)CN(CCCOC(C)C)C(=O)[C@H]2CCCN2C1=O: PAMPA -6.33 (log10 cm/s)
- CCCC[C@@H]1NC(=O)[C@@H](CC(C)C)NC(=O)CN(CC2CCOCC2)C(=O)[C@H](C)NC(=O)CN(CCCOC(C)C)C(=O)[C@H]2CCCN2C1=O: PAMPA -6.75 (log10 cm/s)
- CCCC[C@@H]1NC(=O)[C@H](CC(C)C)NC(=O)CN(CC2CCOCC2)C(=O)[C@H](C)NC(=O)CN(Cc2ccc3c(c2)OCO3)C(=O)[C@@H]2CCCN2C1=O: PAMPA -6.54 (log10 cm/s)
- CCCCCN1CC(=O)N(C)[C@@H](CC(C)C)C(=O)N[C@@H](CCCC)C(=O)N2CCC[C@H]2C(=O)N(CC)CC(=O)N[C@@H](Cc2ccccc2)C1=O: PAMPA -4.89 (log10 cm/s)
- CCCC[C@@H]1NC(=O)[C@@H](CC(C)C)N(C)C(=O)CN(CC2CCCCC2)C(=O)[C@@H](Cc2ccccc2)NC(=O)CN(Cc2ccc3c(c2)OCO3)C(=O)[C@@H]2CCCN2C1=O: PAMPA -5.94 (log10 cm/s)
- CCCCCN1CC(=O)N(C)[C@@H](CC(C)C)C(=O)N[C@@H](CCCC)C(=O)N2CCC[C@H]2C(=O)N(CC)CC(=O)N[C@H](C)C1=O: PAMPA -5.76 (log10 cm/s)
- CCCC[C@@H]1NC(=O)[C@@H](CC(C)C)N(C)C(=O)CN(CC2CCOCC2)C(=O)[C@@H](C)NC(=O)CN(Cc2ccc3c(c2)OCO3)C(=O)[C@@H]2CCCN2C1=O: PAMPA -6.64 (log10 cm/s)
- CCCC[C@@H]1NC(=O)[C@@H](CC(C)C)N(C)C(=O)CN(CC2CCOCC2)C(=O)[C@@H](C)NC(=O)CN(Cc2ccc3c(c2)OCO3)C(=O)[C@H]2CCCN2C1=O: PAMPA -6.05 (log10 cm/s)
- CCCCCN1CC(=O)N(C)[C@@H](CC(C)C)C(=O)N[C@@H](CCCC)C(=O)N2CCC[C@@H]2C(=O)N(CC)CC(=O)N[C@H](C)C1=O: PAMPA -6.43 (log10 cm/s)
- CCCC[C@@H]1NC(=O)[C@@H](CC(C)C)NC(=O)CN(CC2CCCCC2)C(=O)[C@@H](Cc2ccccc2)NC(=O)CN(Cc2ccc3c(c2)OCO3)C(=O)[C@@H]2CCCN2C1=O: PAMPA -5.33 (log10 cm/s)
- CCCCCN1CC(=O)N(C)[C@H](CC(C)C)C(=O)N[C@@H](CCCC)C(=O)N2CCC[C@H]2C(=O)N(CCCOC(C)C)CC(=O)N[C@@H](Cc2ccccc2)C1=O: PAMPA -5.08 (log10 cm/s)
- CCCC[C@@H]1NC(=O)[C@@H](CC(C)C)N(C)C(=O)CN(CC2CCOCC2)C(=O)[C@@H](Cc2ccccc2)NC(=O)CN(Cc2ccc3c(c2)OCO3)C(=O)[C@@H]2CCCN2C1=O: PAMPA -5.43 (log10 cm/s)
- CCCC[C@@H]1NC(=O)[C@H](CC(C)C)NC(=O)CN(CC2CCCCC2)C(=O)[C@H](C)NC(=O)CN(CCCOC(C)C)C(=O)[C@@H]2CCCN2C1=O: PAMPA -5.70 (log10 cm/s)

The first 2 entries again:

{"smiles": "CCCC[C@@H]1NC(=O)[C@H](CC(C)C)N(C)C(=O)CN(CC2CCCCC2)C(=O)[C@H](C)NC(=O)CN(Cc2ccc3c(c2)OCO3)C(=O)[C@H]2CCCN2C1=O", "PAMPA (log10 cm/s)": "-5.12"}
{"smiles": "CCCC[C@@H]1NC(=O)[C@H](CC(C)C)NC(=O)CN(CC2CCOCC2)C(=O)[C@H](Cc2ccccc2)NC(=O)CN(CC)C(=O)[C@H]2CCCN2C1=O", "PAMPA (log10 cm/s)": "-5.95"}